These are literature values, as cited in US10618982B2, “Process in water for the preparation of butyric esters of hyaluronic acid sodium salt” (priority 2015, dated 2020).

The conditions of the series: in vivo.

For N,N dimethylaminopyridine, the LD50 entry is “tens”.
